Experimental findings from US11186582B2, “Substituted [1,2,4]triazolo[1,5-a]pyrimidin-7-yl compounds as PDE2 inhibitors” (DART NEUROSCIENCE (CAYMAN) LTD., priority 2014, dated 2021) are described below.

Sequences of proteins named here, by UniProt entry; tags and fusion partners are left off. Residues count along the entry.
UniProt O00408, 2-941: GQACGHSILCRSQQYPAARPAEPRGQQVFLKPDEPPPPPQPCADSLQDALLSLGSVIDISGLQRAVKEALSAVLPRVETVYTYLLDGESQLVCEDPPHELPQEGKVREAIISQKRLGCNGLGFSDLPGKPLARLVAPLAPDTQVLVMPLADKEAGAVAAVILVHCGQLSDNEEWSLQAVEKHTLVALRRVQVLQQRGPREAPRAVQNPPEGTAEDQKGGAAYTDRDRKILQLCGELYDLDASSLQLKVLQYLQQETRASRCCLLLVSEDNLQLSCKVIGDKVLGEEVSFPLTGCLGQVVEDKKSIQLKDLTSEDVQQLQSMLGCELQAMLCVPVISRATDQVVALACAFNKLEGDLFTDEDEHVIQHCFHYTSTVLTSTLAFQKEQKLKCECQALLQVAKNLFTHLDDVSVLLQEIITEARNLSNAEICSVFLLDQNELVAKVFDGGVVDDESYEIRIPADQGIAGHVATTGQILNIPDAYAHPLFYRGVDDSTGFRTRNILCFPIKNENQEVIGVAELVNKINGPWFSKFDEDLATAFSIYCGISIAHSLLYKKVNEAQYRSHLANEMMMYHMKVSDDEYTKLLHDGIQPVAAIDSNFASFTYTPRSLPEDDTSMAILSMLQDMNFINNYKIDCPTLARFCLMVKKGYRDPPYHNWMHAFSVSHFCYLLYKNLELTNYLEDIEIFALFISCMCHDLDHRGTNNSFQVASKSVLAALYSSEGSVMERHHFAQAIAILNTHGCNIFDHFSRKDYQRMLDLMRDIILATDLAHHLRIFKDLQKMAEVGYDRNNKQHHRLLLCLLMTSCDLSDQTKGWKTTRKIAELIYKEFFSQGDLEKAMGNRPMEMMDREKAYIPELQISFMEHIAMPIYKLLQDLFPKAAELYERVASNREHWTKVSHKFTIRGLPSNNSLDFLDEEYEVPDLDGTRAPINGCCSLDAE

Each structure is given as a SMILES string.

One test addresses FLAG-tagged PDE2A1 (amino acids 2-941) (Homo sapiens (Human), UniProt O00408). Briefly: IMAP TR-FRET PDE2A phosphodiesterase enzymatic assay.
Conditions: not given
(In general: Time-resolved FRET reads energy transfer from a long-lived donor to a nearby acceptor.)
For `Cc1cc(C2CCCN(C(=O)c3cc(C)n(C)n3)C2)n2ncnc2n1` (stereo not drawn) [Example 432, 1-[(1,5-Dimethyl-1H-pyrazol-3-yl)carbonyl]-3-{5-methyl-[1,2,4]triazolo[1,5-a]pyrimidin-7-yl}piperidine], the IC50 lay within 1 to 10 µM.

`Cc1cc(C2CCCN(C(=O)c3cc(F)ccc3F)C2)n2ncnc2n1` (stereo not drawn) [Example 433, 1-[(2,5-Difluorophenyl)carbonyl]-3-{5-methyl-[1,2,4]triazolo[1,5-a]pyrimidin-7-yl}piperidine]: the IC50 was 1 to 10 µM.

Turning to `Cc1cc(C2CCCN(C(=O)c3cc(C4CC4)on3)C2)n2ncnc2n1` (stereo not drawn) [Example 434, 1-[(5-Cyclopropyl-1,2-oxazol-3-yl)carbonyl]-3-{5-methyl-[1,2,4]triazolo[1,5-a]pyrimidin-7-yl}piperidine], the concentration for half-maximal inhibition (IC50) is 0.1 to 1 µM.

As to `Cc1cc(C2CCCN(C(=O)c3cnn(C(C)C)c3)C2)n2ncnc2n1` (stereo not drawn) [Example 435, 3-{5-Methyl-[1,2,4]triazolo[1,5-a]pyrimidin-7-yl}-1-{[1-(propan-2-yl)-1H-pyrazol-4-yl]carbonyl}piperidine], the IC50 lay within 0.1 to 1 µM.

Compound `Cc1cc(C2CCCN(C(=O)c3ccc(Cl)cc3Cl)C2)n2ncnc2n1` (stereo not drawn) [Example 436, 1-[(2,4-Dichlorophenyl)carbonyl]-3-{5-methyl-[1,2,4]triazolo[1,5-a]pyrimidin-7-yl}piperidine] registered an IC50 of 0.1 to 1 µM.

For `Cc1cc(C2CCCN(C(=O)c3cc(C(C)C)nn3C)C2)n2ncnc2n1` (stereo not drawn) [Example 437, 1-{[1-Methyl-3-(propan-2-yl)-1H-pyrazol-5-yl]carbonyl}-3-{5-methyl-[1,2,4]triazolo[1,5-a]pyrimidin-7-yl}piperidine], the IC50 is 0.1 to 1 µM.

Take `Cc1cc(C2CCCN(C(=O)c3cc(Cl)ccc3Cl)C2)n2ncnc2n1` (stereo not drawn) [Example 438, 1-[(2,5-Dichlorophenyl)carbonyl]-3-{5-methyl-[1,2,4]triazolo[1,5-a]pyrimidin-7-yl}piperidine]: the half-maximal inhibitory concentration (IC50) is 0.1 to 1 µM.

The compound `Cc1cc(C2CCCN(C(=O)c3ccc(Cl)cc3F)C2)n2ncnc2n1` (stereo not drawn) [Example 440, 1-[(4-Chloro-2-fluorophenyl)carbonyl]-3-{5-methyl-[1,2,4]triazolo[1,5-a]pyrimidin-7-yl}piperidine] registered an IC50 of 0.1 to 1 µM.

In turn, `Cc1cc(C2CCCN(C(=O)c3cc(F)ccc3C)C2)n2ncnc2n1` (stereo not drawn) [Example 441, 1-[(5-Fluoro-2-methylphenyl)carbonyl]-3-{5-methyl-[1,2,4]triazolo[1,5-a]pyrimidin-7-yl}piperidine] came in with a concentration for half-maximal inhibition (IC50) above 10 µM.

With `CCn1nccc1C(=O)N1CCCC(c2cc(C)nc3ncnn23)C1` (stereo not drawn) [Example 443, 1-[(1-Ethyl-1H-pyrazol-5-yl)carbonyl]-3-{5-methyl-[1,2,4]triazolo[1,5-a]pyrimidin-7-yl}piperidine], the IC50 was 1 to 10 µM.

For `Cc1cc(C2CCCN(C(=O)c3ccc(Cl)cc3)C2)n2ncnc2n1` (stereo not drawn) [Example 444, 1-[(4-Chlorophenyl)carbonyl]-3-{5-methyl-[1,2,4]triazolo[1,5-a]pyrimidin-7-yl}piperidine], the IC50 lay within 0.1 to 1 µM.

`Cc1cc(C2CCCN(C(=O)c3cccc(C(C)C)c3)C2)n2ncnc2n1` (stereo not drawn) [Example 450, 3-{5-Methyl-[1,2,4]triazolo[1,5-a]pyrimidin-7-yl}-1-{[3-(propan-2-yl)phenyl]carbonyl}piperidine]: the IC50 was in the range of 0.1 to 1 µM.

As to `COc1cccc(C(=O)N2CCCC(c3cc(C)nc4ncnn34)C2)c1OC` (stereo not drawn) [Example 451, 1-[(2,3-Dimethoxyphenyl)carbonyl]-3-{5-methyl-[1,2,4]triazolo[1,5-a]pyrimidin-7-yl}piperidine], the IC50 was in the range of 1 to 10 µM.

As to `Cc1ccc(C(=O)N2CCCC(c3cc(C)nc4ncnn34)C2)c(C)c1` (stereo not drawn) [Example 454, 1-[(2,4-Dimethylphenyl)carbonyl]-3-{5-methyl-[1,2,4]triazolo[1,5-a]pyrimidin-7-yl}piperidine], the IC50 was 0.1 to 1 µM.

The compound `COc1ccccc1C(=O)N1CCCC(c2cc(C)nc3ncnn23)C1` (stereo not drawn) [Example 455, 1-[(2-Methoxyphenyl)carbonyl]-3-{5-methyl-[1,2,4]triazolo[1,5-a]pyrimidin-7-yl}piperidine] came in with an IC50 of 0.1 to 1 µM.

On to `COc1ccc(F)c(C(=O)N2CCCC(c3cc(C)nc4ncnn34)C2)c1` (stereo not drawn) [Example 456, 1-[(2-Fluoro-5-methoxyphenyl)carbonyl]-3-{5-methyl-[1,2,4]triazolo[1,5-a]pyrimidin-7-yl}piperidine], for which the concentration for half-maximal inhibition (IC50) lay in the range of 0.1 to 1 µM.

`Cc1cc(C2CCCN(C(=O)c3ccc(C(C)C)cc3)C2)n2ncnc2n1` (stereo not drawn) [Example 458, 3-{5-Methyl-[1,2,4]triazolo[1,5-a]pyrimidin-7-yl}-1-{[4-(propan-2-yl)phenyl]carbonyl}piperidine] returned an IC50 of 0.1 to 1 µM.

`Cc1cc(C2CCCN(C(=O)c3nc4ccccc4s3)C2)n2ncnc2n1` (stereo not drawn) [Example 459, 2-[(3-{5-Methyl-[1,2,4]triazolo[1,5-a]pyrimidin-7-yl}piperidin-1-yl)carbonyl]-1,3-benzothiazole] yielded an IC50 of 0.1 to 1 µM.

In turn, `COc1ccc(F)cc1C(=O)N1CCCC(c2cc(C)nc3ncnn23)C1` (stereo not drawn) [Example 460, 1-[(5-Fluoro-2-methoxyphenyl)carbonyl]-3-{5-methyl-[1,2,4]triazolo[1,5-a]pyrimidin-7-yl}piperidine] displayed a half-maximal inhibitory concentration (IC50) of 1 to 10 µM.

`Cc1cc(C2CCCN(C(=O)c3nn(C)c4ccccc34)C2)n2ncnc2n1` (stereo not drawn) [Example 462, 1-Methyl-3-[(3-{5-methyl-[1,2,4]triazolo[1,5-a]pyrimidin-7-yl}piperidin-1-yl)carbonyl]-1H-indazole] gave a 50% inhibitory concentration (IC50) of 0.1 to 1 µM.

`COc1cccc(C(=O)N2CCCC(c3cc(C)nc4ncnn34)C2)c1` (stereo not drawn) [Example 464, 1-[(3-Methoxyphenyl)carbonyl]-3-{5-methyl-[1,2,4]triazolo[1,5-a]pyrimidin-7-yl}piperidine]: the half-inhibitory concentration (IC50) lay in the range of 0.1 to 1 µM.

`Cc1ccc(C)c(C(=O)N2CCCC(c3cc(C)nc4ncnn34)C2)c1` (stereo not drawn) [Example 466, 1-[(2,5-Dimethylphenyl)carbonyl]-3-{5-methyl-[1,2,4]triazolo[1,5-a]pyrimidin-7-yl}piperidine]: the IC50 lay in the range of 0.1 to 1 µM.

Regarding `COc1cc(F)ccc1C(=O)N1CCCC(c2cc(C)nc3ncnn23)C1` (stereo not drawn) [Example 467, 1-[(4-Fluoro-2-methoxyphenyl)carbonyl]-3-{5-methyl-[1,2,4]triazolo[1,5-a]pyrimidin-7-yl}piperidine], the IC50 lay within 0.1 to 1 µM.

The test is the same for the next values; noted with them: IMAP TR-FRET, 200 nM FAM-cAMP substrate, 11-point half-log dose-response.
For `Cc1cc(C2CCCN(C(=O)c3cnn(-c4ccccc4)c3)C2)n2ncnc2n1` (stereo not drawn) [Example 439, 3-{5-Methyl-[1,2,4]triazolo[1,5-a]pyrimidin-7-yl}-1-[(1-phenyl-1H-pyrazol-4-yl)carbonyl]piperidine], the “PDE2 (pIC50)” value is above 7.

For `COc1ccc(C(=O)N2CCCC(c3cc(C)nc4ncnn34)C2)cc1OC` (stereo not drawn) [Example 442, 1-[(3,4-Dimethoxyphenyl)carbonyl]-3-{5-methyl-[1,2,4]triazolo[1,5-a]pyrimidin-7-yl}piperidine], the “PDE2 (pIC50)” value is above 7.

Consider `Cc1cc(C2CCCN(C(=O)c3cc(-c4ccccc4)nn3C)C2)n2ncnc2n1` (stereo not drawn) [Example 445, 1-[(1-Methyl-3-phenyl-1H-pyrazol-5-yl)carbonyl]-3-{5-methyl-[1,2,4]triazolo[1,5-a]pyrimidin-7-yl}piperidine], for which the “PDE2 (pIC50)” value is given as above 7.

For `COc1c(C(=O)N2CCCC(c3cc(C)nc4ncnn34)C2)ccc2ccccc12` (stereo not drawn) [Example 446, 1-[(1-Methoxynaphthalen-2-yl)carbonyl]-3-{5-methyl-[1,2,4]triazolo[1,5-a]pyrimidin-7-yl}piperidine], the “PDE2 (pIC50)” value is given as above 7.

For the compound `COc1ccc2cc(C(=O)N3CCCC(c4cc(C)nc5ncnn45)C3)ccc2c1` (stereo not drawn) [Example 447, 1-[(6-Methoxynaphthalen-2-yl)carbonyl]-3-{5-methyl-[1,2,4]triazolo[1,5-a]pyrimidin-7-yl}piperidine], the “PDE2 (pIC50)” value was above 7.

`Cc1cc(C2CCCN(C(=O)c3ccc4c(c3)OCO4)C2)n2ncnc2n1` (stereo not drawn) [Example 448, 1-[(2H-1,3-Benzodioxol-5-yl)carbonyl]-3-{5-methyl-[1,2,4]triazolo[1,5-a]pyrimidin-7-yl}piperidine]: the “PDE2 (pIC50)” value is above 7.

Turning to `COc1cc2ccccc2cc1C(=O)N1CCCC(c2cc(C)nc3ncnn23)C1` (stereo not drawn) [Example 449, 1-[(3-Methoxynaphthalen-2-yl)carbonyl]-3-{5-methyl-[1,2,4]triazolo[1,5-a]pyrimidin-7-yl}piperidine], the “PDE2 (pIC50)” value is on record as above 7.

Regarding `Cc1cc(C2CCCN(C(=O)c3ccc4sccc4c3)C2)n2ncnc2n1` (stereo not drawn) [Example 452, 1-[(1-Benzothiophen-5-yl)carbonyl]-3-{5-methyl-[1,2,4]triazolo[1,5-a]pyrimidin-7-yl}piperidine], the “PDE2 (pIC50)” value is above 7.

As to `Cc1cc(C2CCCN(C(=O)c3ccc4c(c3)OCCO4)C2)n2ncnc2n1` (stereo not drawn) [Example 453, 1-[(2,3-Dihydro-1,4-benzodioxin-6-yl)carbonyl]-3-{5-methyl-[1,2,4]triazolo[1,5-a]pyrimidin-7-yl}piperidine], the “PDE2 (pIC50)” value was above 7.

With `Cc1cc(C2CCCN(C(=O)c3cc4ccccc4s3)C2)n2ncnc2n1` (stereo not drawn) [Example 457, 1-[(1-Benzothiophen-2-yl)carbonyl]-3-{5-methyl-[1,2,4]triazolo[1,5-a]pyrimidin-7-yl}piperidine], the “PDE2 (pIC50)” value is above 7.

Regarding `Cc1cc(C2CCCN(C(=O)c3cccc(-c4ccccc4)c3)C2)n2ncnc2n1` (stereo not drawn) [Example 461, 3-{5-Methyl-[1,2,4]triazolo[1,5-a]pyrimidin-7-yl}-1-[(3-phenylphenyl)carbonyl]piperidine], the “PDE2 (pIC50)” value is above 7.

On to `Cc1cc(C2CCCN(C(=O)c3cc4ccccc4o3)C2)n2ncnc2n1` (stereo not drawn) [Example 463, 1-[(1-Benzofuran-2-yl)carbonyl]-3-{5-methyl-[1,2,4]triazolo[1,5-a]pyrimidin-7-yl}piperidine], for which the “PDE2 (pIC50)” value is recorded as above 7.

Turning to `Cc1cc(C2CCCN(C(=O)c3cc4ccccc4n3C)C2)n2ncnc2n1` (stereo not drawn) [Example 465, 1-Methyl-2-[(3-{5-methyl-[1,2,4]triazolo[1,5-a]pyrimidin-7-yl}piperidin-1-yl)carbonyl]-1H-indole], the “PDE2 (pIC50)” value is recorded as above 7.

A word on the IC50: it is the concentration that inhibits the measured activity by half. A lower IC50 goes with greater potency in that assay.
